Patent US9808004B2, “Synergistic combination to improve grape color and to alter sensory characteristics of wine” (Valent BioSciences Corporation, priority 2007, dated 2017)

Test system: red table grape cultivar 'Crimson Seedless'
Assay: Replicated field experiment on Crimson Seedless table grapes: colour development (harvestable clusters), firmness, berry weight, Brix; Synergy Index
Conditions: at harvest
Source text: The vineyard was 12 years old and on overhead trellis with a vine spacing of 12 ft by 7 ft (518 vines/acre). Plot size was three vines/replicate, with six replicates/treatments. The area evaluated within each plot was one center vine and two half vines on each side for a total of two vines. Applications were made seven days after veraison (beginning of berry softening). On the day of application, red coloration was developing on about 10% of the berries. […] All treatments were mixed with the adjuvant Latron B-1956 (0.05% v/v; Dow AgroSciences LLC, Indianapolis, Ind.). Treatments were applied with a backpack mist blower at 200 gallons/acre (757 l/acre).
The total grape clusters were counted on the day of application. After treatment, the plots were evaluated weekly for color development by counting the number of harvestable colored grape clusters in each plot. All harvestable colored clusters were removed 79 days later to eliminate over-mature clusters. The number of harvestable colored grape clusters was expressed as cumulative harvestable clusters (number of harvestable clusters per two vines). Average berry firmness, weight and Brix (soluble solids) were evaluated 5 days later. Evaluation samples consisted of 10 second shoulders (second lateral branch of the main rachis) from 10 different clusters selected randomly from each plot. All berries in the evaluation samples were removed, counted, and weighed. A sub-sample of 20 to 30 berries was crushed for brix (soluble solids) analysis. Brix was measured with a handheld temperature compensating Leica Refractometer. An additional 10 berries were selected randomly for berry firmness. Berry firmness was determined by a hand held Wilson Penetrometer (0 to 1000 g) mounted on a stand with a 6 mm tip.
Synergy was determined by an industrially accepted method (Kull et al., 1961, Applied Microbiology 9:538-541 and Robertson and Ramesh, 1998, U.S. Pat. No. 5,716,629). Synergy Index=Qa/QA+Qb/QB where:
Qa=dose of compound A in mg/vine, in the mixture, which produced an end point
QA=dose of compound A in mg/vine, acting alone, which produced an end point.
Qb=[…] of compound B in mg/vine, in the mixture, which produced an end point.
QB=dose of compound B in mg/vine, acting alone, which produced an end point.
Synergy, additivity, or antagonism are shown when the Synergy Index is less than one, equal to one, or greater than one, respectively.

[1] = 292 mg/vine of each compound applied

| Compound | Firmness (88 mg/vine of each compound applied) | Firmness [1] | Firmness (877 mg/vine) |
| --- | --- | --- | --- |
| (S)-5-(1-hydroxy-2,6,6,-trimethyl-4-oxo-2-cyclohexen-1-yl)-3-methyl-(2Z,4E)-pentadienoic acid [S-ABA] | 766 g | 759 g | 663 g |
| O=P(O)(O)CCCl [Ethephon, reference compound] |  | 766 g |  |
